Measured values taken from PubChem BioAssay AID588342 (National Center for Advancing Translational Sciences (NCATS), 2011).
Where “and” joins values, the source holds several entries; their conditions need not be identical. Identical values can stand only once. The entries are a selection whose mix differs from that of the whole data set. Some results for these compounds are left out of this collection, so the calls shown say nothing about other tests. Inconclusive results are not listed. Calls of active or inactive are those of the source. Calls follow the shape of the dose curve; as a rule, active = well fitted inhibition curve with a large enough effect; inconclusive = small, poorly fitted or top-dose-only effect; inactive = flat fitted curve, though single readings scatter.
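Also: plate controls were vehicle for no effect and reference inhibitor for full effect; nearly all actives have a fitted effect of over 55% in size.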

Sequences of proteins named here, by UniProt entry; tags and fusion partners are left off.
UniProt P08659, whole entry: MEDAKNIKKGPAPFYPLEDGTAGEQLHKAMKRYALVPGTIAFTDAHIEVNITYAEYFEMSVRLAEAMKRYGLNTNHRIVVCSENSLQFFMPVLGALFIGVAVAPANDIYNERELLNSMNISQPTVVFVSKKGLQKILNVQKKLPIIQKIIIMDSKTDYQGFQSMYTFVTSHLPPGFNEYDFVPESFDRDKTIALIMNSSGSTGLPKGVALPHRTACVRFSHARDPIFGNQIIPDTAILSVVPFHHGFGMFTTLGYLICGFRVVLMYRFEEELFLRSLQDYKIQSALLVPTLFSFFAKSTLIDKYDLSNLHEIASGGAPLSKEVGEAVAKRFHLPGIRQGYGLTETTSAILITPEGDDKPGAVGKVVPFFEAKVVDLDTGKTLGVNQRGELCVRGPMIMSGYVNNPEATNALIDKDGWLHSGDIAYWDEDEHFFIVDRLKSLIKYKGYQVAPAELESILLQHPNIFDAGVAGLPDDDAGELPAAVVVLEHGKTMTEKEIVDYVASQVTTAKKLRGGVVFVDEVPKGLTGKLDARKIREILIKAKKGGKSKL

The compounds below were run against Luciferin 4-monooxygenase (Photinus pyralis) (UniProt P08659) (assay: qHTS profiling assay for firefly luciferase inhibitor/activator using purifed enzyme and Km concentrations of substrates (counterscreen for miR-21 project)). Details: purified FLuc, luminescence inhibition; at 57.5 µM (top of the series).
`Cc1cccc(C(=O)NCC2(N(C)C)CCCCC2)c1` was tested, and the activity change, negative = inhibition was inactive: 0.585%.
In the case of `COc1cc(C(=O)NCC2(N(C)C)CCCCC2)cc(OC)c1OC`, the activity change, negative = inhibition is reported as inactive: -0.19%.
In the case of `COc1ccc(Br)c(C(=O)NCC2(N3CCCCC3)CCCCC2)c1`, the activity change, negative = inhibition is reported as inactive: 1.25%.
`CN(C)c1cccc(C(=O)NCC2(N(C)C)CCCCC2)c1` was tested, and the activity change, negative = inhibition was inactive: 1.88%.
In the case of `CC(C)Oc1ccc(C(=O)NCC2(N(C)C)CCCCC2)cc1`, the activity change, negative = inhibition is reported as inactive: 1.2% and inactive: 0.138%.
With `O=C(OC1CN2CCC1CC2)C(CO)(c1ccccc1)c1ccccc1` (centres undefined) the activity change, negative = inhibition was inactive: -1.03%.
In the case of `COc1cccc(C(=O)NCC2(N3CCOCC3)CCCCC2)c1`, the activity change, negative = inhibition is reported as inactive: -0.923%.
With `CC(C)COc1ccc(C(=O)NCC2(N(C)C)CCCCC2)cc1` the activity change, negative = inhibition was inactive: -0.37%.
`COc1ccc(C(=O)NCC2(N(C)C)CCCCC2)cc1Cl` was tested, and the activity change, negative = inhibition was inactive: -7.1%.
`COc1cccc(C(=O)NCC2(N3CCCCC3)CCCCC2)c1` was tested, and the activity change, negative = inhibition was inactive: -0.0309%.
For `COc1ccc(Cl)cc1C(=O)NCC1(N(C)C)CCCCC1`, the activity change, negative = inhibition was inactive: -9.08%.
`O=C(NCC1(N2CCCCC2)CCCCC1)c1cccc(Cl)c1` was tested, and the activity change, negative = inhibition was inactive: 1.67%.
With `CN(C)C1(CNC(=O)c2ccc(Br)cc2)CCCCC1` the activity change, negative = inhibition was inactive: 4.15%.
For `COc1cc(C(=O)NCC2(N(C)C)CCCCC2)c([N+](=O)[O-])cc1OC`, the activity change, negative = inhibition was inactive: 1.16%.
`C=CCN1CCN(CCOC(=O)C(O)(c2ccccc2)c2ccccc2)CC1` was tested, and the activity change, negative = inhibition was inactive: -3.9%.
For `O=C(NCC1(N2CCCCC2)CCCCC1)c1cc(F)c(F)cc1Cl`, the activity change, negative = inhibition was inactive: 1.46%.
`CCN1CCCC(OC(=O)C2(O)c3ccccc3C=Cc3ccccc32)C1` (centres undefined) was tested, and the activity change, negative = inhibition was inactive: -2.55%.
In the case of `Cc1cc(C(=O)NCC2(N3CCCCC3)CCCCC2)ccc1[N+](=O)[O-]`, the activity change, negative = inhibition is reported as inactive: -1.29%.
For `O=C(NCC1(N2CCCCC2)CCCCC1)c1cccc(Br)c1`, the activity change, negative = inhibition was inactive: 0.162%.
For `COc1ccc(C(=O)NCC2(N(C)C)CCCCC2)cc1`, the activity change, negative = inhibition was inactive: -0.571%.
`CCOc1cccc(C(=O)NCC2(N(C)C)CCCCC2)c1` was tested, and the activity change, negative = inhibition was inactive: -2.46%.
`Cc1ccccc1C(=O)NCC1(N2CCCCC2)CCCCC1` was tested, and the activity change, negative = inhibition was inactive: -0.363%.
`CN(C)C1(CNC(=O)c2ccccc2[N+](=O)[O-])CCCCC1` was tested, and the activity change, negative = inhibition was inactive: 0.629%.
With `CN(C)c1ccc(C(=O)NCC2(N(C)C)CCCCC2)cc1` the activity change, negative = inhibition was inactive: -0.984%.
For `CN(C)C1CCCC1OC(=O)C(O)(c1ccccc1)c1ccccc1` (centres undefined), the activity change, negative = inhibition was inactive: 1.03%.
For `CCCCOc1ccccc1C(=O)NCC1(N(C)C)CCCCC1`, the activity change, negative = inhibition was inactive: -5.93%.
With `CC(C)N1C(=O)CC2(CCN(CCOC(=O)C(O)(c3ccccc3)c3ccccc3)CC2)C1=O` the activity change, negative = inhibition was inactive: -1.41%.
With `CCN(CC)CC(C)C(C)OC(=O)C(O)(c1ccccc1)c1ccccc1` (centres undefined) the activity change, negative = inhibition was inactive: 1.58%.
With `CN(C)C1(CNC(=O)c2cccc(Cl)c2)CCCCC1` the activity change, negative = inhibition was inactive: -1.01%.
In the case of `COc1cc(SC)ccc1C(=O)NCC1(N(C)C)CCCCC1`, the activity change, negative = inhibition is reported as inactive: -4.63%.
With `CN(C)C1(CNC(=O)c2ccccc2F)CCCCC1` the activity change, negative = inhibition was inactive: -2.25%.
For `Cc1ccc(C(=O)NCC2(N3CCCCC3)CCCCC2)cc1`, the activity change, negative = inhibition was inactive: 0.524%.
With `O=C(NCC1(N2CCCCC2)CCCCC1)c1cc([N+](=O)[O-])ccc1Cl` the activity change, negative = inhibition was inactive: 0.79%.
In the case of `CN1[C@@H]2CC[C@H]1CC(OC(=O)C(O)(c1ccccc1)c1ccccc1)C2` (some centres undefined), the activity change, negative = inhibition is reported as inactive: 1.4%.
